Data on one compound can be found in article PMC11012005 (International Journal of Molecular Sciences, 2024).

Sequences of proteins named here, by UniProt entry; tags and fusion partners are left off.
UniProt P35372, whole entry: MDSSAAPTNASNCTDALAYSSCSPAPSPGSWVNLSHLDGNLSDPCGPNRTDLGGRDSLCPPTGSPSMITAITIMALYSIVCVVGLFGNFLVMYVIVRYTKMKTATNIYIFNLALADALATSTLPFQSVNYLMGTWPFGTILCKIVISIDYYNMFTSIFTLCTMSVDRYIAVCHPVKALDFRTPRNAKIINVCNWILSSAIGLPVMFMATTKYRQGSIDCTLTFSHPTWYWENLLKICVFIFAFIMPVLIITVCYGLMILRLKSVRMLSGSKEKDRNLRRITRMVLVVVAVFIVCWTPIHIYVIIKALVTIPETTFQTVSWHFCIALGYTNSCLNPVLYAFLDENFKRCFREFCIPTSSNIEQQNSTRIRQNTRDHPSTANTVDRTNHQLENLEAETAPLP

For this test, the target named is T1, human MOR (Homo sapiens, UniProt P35372).
T1 construct: expressed in transfected cells; host or cells: CHO cells (CHO-hMOR), gift of Dr. Lawrence Toll, SRI International
Put plainly: Radioligand competition binding, [3H]DAMGO, CHO-hMOR cell membranes. To be noted: read-out: Opioid Receptor Binding (Ki, nM) MOR.

Regarding `C[C@@H](NC(=O)[C@@H](N)Cc1ccc(O)cc1)C(=O)N[C@@H](Cc1ccccc1)C(=O)NCC(=O)N[C@@H](Cc1ccc(O)cc1)C(=O)N1CCC[C@H]1C(=O)N[C@@H](CO)C(N)=O` [Dermorphin, reference compound], the Ki was 1.89 ± 0.2 nM.
